Test: Stability of indicator gels towards oxidant: 1 mM hydrogen peroxide in PBS at 37° C.
Format: physicochemical
Conditions: indicator gel
Protocol: Several compounds of the present invention were each copolymerized with hydroxyethyl methacrylate (HEMA), acrylic acid and ethylene glycol dimethacrylate (EGDMA) to form water insoluble polymer gels, as in Example 3. Their stability towards oxidant was assessed by subjecting the gels to 1 mM hydrogen peroxide in PBS at 37° C. […] In a further experiment, the fluorescent change (% modulation) from 0 to 20 mM glucose of various indicator gels was measured and the results are shown in FIG. 8.

| Substance | t 1/2 [min] |
| --- | --- |
| 9-[N-[6-(4,4,5,5,-tetramethyl-1,3,2-dioxaborolano)-3-(N,N-dimethylsulfamoyl)benzyl]-N-[3-(methacrylamido)propylamino]methyl]-10-[N-[6-(4,4,5,5,-tetramethyl-1,3,2-dioxaborolano)-3-(N,N-dimethylsulfamoyl)benzyl]-N-[2-(carboxyethyl)amino]methyl]anthracene sodium salt [4-Dimethylsulfonamide] | 9 |
| 9-[N-[6-(4,4,5,5,-tetramethyl-1,3,2-dioxaborolano)-3-chlorobenzyl]-N-[3-(methacrylamido)propylamino]methyl]-10-[N-[6-(4,4,5,5,-tetramethyl-1,3,2-dioxaborolano)-3-chlorobenzyl]-N-[2-(carboxyethyl)amino]methyl]anthracene sodium salt [Indicator 4-Chloro] | 15 |

Source: US8143068B2, “Oxidation resistant indicator molecules” (Sensors for Medicine and Science, Inc., priority 2006, dated 2012)
